{
  "source": "paper PMC12445440",
  "about": "(Journal of Medical Virology, 2025)",
  "key": {"RTN3": {"test_system": "RTN3", "test": "Western blot of ER proteins in Huh-7 cells: RTN3", "conditions": "6 μM PS1097 or 15 μM SOF, 48 h"}, "RTN3 mRNA": {"test_system": "RTN3 mRNA", "test": "qRT-PCR of RTN3 mRNA in treated cells", "type": "cell-based, human", "conditions": "6 μM PS1097 or 15 μM SOF, 48 h, relative to GAPDH"}},
  "data": [
    {"smiles": "O=c1[nH]c2cc3cccnc3c(Cl)c2nc1-c1cccs1", "note": "[PS1097, 5‐chloro‐3‐(thiophen‐2‐yl) pyrido[2,3‐g] quinoxalin‐2(1H)‐one]", "values": [
      {"measurement": "RTN3 protein content (western blot)", "setting": "RTN3", "result": "significant decrease"},
      {"measurement": "Reduction in RTN3 mRNA (qRT-PCR)", "setting": "RTN3 mRNA", "result": "approximately 50%"}
    ]},
    {"smiles": "CC(C)OC(=O)[C@H](C)N[P@](=O)(OC[C@H]1O[C@@H](n2ccc(=O)[nH]c2=O)[C@](C)(F)[C@@H]1O)Oc1ccccc1", "note": "[SOF, Sofosbuvir, reference compound]", "values": [
      {"measurement": "RTN3 protein content (western blot)", "setting": "RTN3", "result": "did not affect"},
      {"measurement": "Reduction in RTN3 mRNA (qRT-PCR)", "setting": "RTN3 mRNA", "result": "roughly 25%"}
    ]}
  ]
}
